From patent US6387936B1, “Combinations of riluzole and levodopa for the treatment of Parkinson's disease” (Aventis Pharma S.A., priority 1998, dated 2002) come the findings set out here.

“And” between values parts separate entries of the source, which are not always exact repeats. Identical values can stand only once.

The subject of this assay is parkinsonian marmosets (MPTP). The experiment in a line: Dyskinesic score in MPTP-treated marmosets under chronic L-DOPA. It counts as in vivo, Callithrix jacchus. More on the design: Total dyskinesic score, individual values: scale not given here. The settings on record: for Total dyskinesic score, individual values: riluzole 2 × 10 mg/kg p.o. + L-DOPA (Group 2), marmosets 4-6, 10 mg/kg. The procedure: The marmosets have free access to water and have available each day 35 g of food rich in carbohydrates, proteins and vitamins mixed with water, milk and sugar and also fresh fruit.
All the animals receive 3 injections of 2 mg/kg of MPTP by the subcutaneous route, on days 1, 7 and 32. On day 32, the animals are divided into 2 groups.
The dyskinesic score is determined according to a number of parameters and each with a different degree of intensity: […]

As for `Nc1nc2ccc(OC(F)(F)F)cc2s1` [riluzole, 2-amino-6-trifluoromethoxybenzo-thiazole], for the setting “riluzole 10 mg/kg oral, twice per day, day 57 to day 104”, the “Effect on dyskinesias induced by L-DOPA (in words)” value is “reduces the dyskinesias induced by L-DOPA”. Moreover, the “Total dyskinesic score, individual values” by setting is: (day 57 after 1st MPTP, 30 min after 1st daily L-DOPA) 3 (2×) and 1; (day 57 after 1st MPTP, 2 h after 1st daily L-DOPA) 3 (2×) and 0; (day 60 after 1st MPTP, 30 min after 1st daily L-DOPA) 3 (2×) and 1; (day 60 after 1st MPTP, 2 h after 1st daily L-DOPA) 2 and 3 and 1; (day 67 after 1st MPTP, 30 min after 1st daily L-DOPA) 3 (2×) and 1; (day 67 after 1st MPTP, 2 h after 1st daily L-DOPA) 3 (2×) and 1. In addition, the “Total dyskinesic score, individual values” reads like this: (day 104 after 1st MPTP, 30 min after 1st daily L-DOPA) 1 and 3 (2×); (day 104 after 1st MPTP, 2 h after 1st daily L-DOPA) 1 and 3 (2×).
